Measured properties of organic chemicals

From the experimental data distributed with OPERA 2.9.

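The OPERA project collected these measurements from public sources as training and test data for property models. One number stands for a compound and property, with no spread given. Method and conditions are not stated for these values. Where a salt, mixture or single isomer is drawn, the source does not say that exactly this form was tested. Some upstream entries may be estimates or bounds without being marked so.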

The melting point is given in degrees Celsius. Boiling points are in °C, nominally at 760 mmHg. logP is the log10 of the octanol-water partition coefficient; higher is more lipophilic. Water solubility is log10 of mol/L, nominally at 25 °C; higher is more soluble. Vapor pressure is log10 of mmHg; the set covers 15 to 30 °C, mostly 20 to 25 °C. Henry's law constant (air-water partitioning) is log10 of atm·m3/mol, nominally at 25 °C. The unbound fraction in human plasma runs from 0 (all bound) to 1 (all free). Intrinsic clearance (human, µL/min per 10^6 hepatocytes): higher is faster turnover, and 0 stands for none detected. Cells with "n/a" have no entry in this list.

| mp (°C) | boiling point (°C) | log Kow | log S (log10 mol/L) | log VP (log10 mmHg) | Henry's law constant (log10 atm·m3/mol) | plasma fu | hepatic Clint (µL/min/10^6 cells) | SMILES | name |
|---|---|---|---|---|---|---|---|---|---|
| n/a | n/a | 0.08 | -1.746 | n/a | n/a | n/a | n/a | Nc1cc(S(=O)(=O)O)cc([N+](=O)[O-])c1O | 4-Hydroxy-5-nitrometanilic acid |
| n/a | 200 | 3.7 | -2.624 | 0.306 | n/a | n/a | n/a | COC(=O)[C@@H]1CCC[C@H](C)C1 (relative stereo) | n/a |
| 66.5 | n/a | 0.822 | -1.832 | n/a | n/a | n/a | n/a | CCN(CCNS(C)(=O)=O)c1ccc(N)c(C)c1 | n/a |
| 84.69 | n/a | n/a | -6.103 | -5.195 | n/a | n/a | n/a | CC(CCN(CCC(C)CC(C)(C)C)C(=S)[S-])CC(C)(C)C.CC(CCN(CCC(C)CC(C)(C)C)C(=S)[S-])CC(C)(C)C.[Zn+2] (centres undefined) | Zinc bis[bis(3,5,5-trimethylhexyl)carbamodithioate] |
| n/a | n/a | -0.15 | -7.814 | n/a | n/a | n/a | n/a | Cc1ccc(C(=O)OCCCl)cc1N=Nc1c(O)c(C(=O)Nc2cc(C)c(NC(=O)c3cc4ccccc4c(N=Nc4cc(C(=O)OCCCl)ccc4C)c3O)cc2C)cc2ccccc12 | n/a |
| n/a | n/a | 0.97 | -4.359 | n/a | n/a | n/a | n/a | CN(c1ccccc1)S(=O)(=O)c1cc(O)c2c(/N=N/c3ccc(NC(=O)CCl)cc3S(=O)(=O)[O-])c(N)ccc2c1.[Na+] | n/a |
| 74.2 | n/a | 2.49 | -3.732 | n/a | n/a | n/a | n/a | COCCCOc1cc(C(O)[C@@H](C[C@H](NC(=O)OC(C)(C)C)[C@@H]2C[C@@H](C(C)C)C(=O)O2)C(C)C)ccc1OC (stereo not given in full) | n/a |
| 80.5 | n/a | n/a | -1.682 | n/a | n/a | n/a | n/a | CCNC(=O)COC(=O)c1ccccc1OC(C)=O | 2-(Ethylamino)-2-oxoethyl 2-(acetyloxy)benzoate |
| n/a | n/a | -0.3 | -4.435 | n/a | n/a | n/a | n/a | Cc1cc(/N=N/c2c([O-])c(C(=O)[O-])cc3ccccc23)c(S(=O)(=O)[O-])cc1Cl.[H+].[Mn+2] | n/a |
| 158 | n/a | n/a | -11 | n/a | n/a | n/a | n/a | Clc1cc(Oc2c(Cl)c(Cl)c(Cl)c(Cl)c2Cl)c(Cl)c(Cl)c1Cl | n/a |
| n/a | n/a | n/a | -8.498 | -8.721 | n/a | n/a | n/a | CCCCCCCCCCCCCCCCCCOC(=O)CCc1cc(C(C)(C)C)c(O)c(C(C)(C)C)c1 | Octadecyl 3-(3,5-di-tert-butyl-4-hydroxyphenyl)propionate |
| 227.4 | n/a | 3.6 | -5.975 | n/a | n/a | n/a | n/a | COC(=O)c1ccc2c(c1)C(C)(C)C(=CC=C1C(=O)N(c3ccccc3)N=C1C)N2C | n/a |
| -108.3 | n/a | 4.17 | -3.361 | -1.763 | n/a | n/a | n/a | CCCCCC(CO)CCC (centres undefined) | 2-Propyl-1-heptanol |
| n/a | n/a | n/a | -0.951 | n/a | -6.372 | n/a | n/a | Oc1cnc2ccccc2n1 | 2(1H)-Quinoxalinone |
| n/a | n/a | n/a | -9.136 | 0.588 | n/a | n/a | n/a | FC(F)(F)C(F)(F)C(F)(F)N(C(F)(F)C(F)(F)C(F)(F)F)C(F)(F)C(F)(F)C(F)(F)F | Perfluamine |
| 121.4 | n/a | 1.3 | -2.032 | -7.706 | n/a | n/a | n/a | CN1CCN(c2ncccc2CO)C(c2ccccc2)C1 (centres undefined) | 2-(4-Methyl-2-phenyl-1-piperazinyl)-3-pyridinemethanol |
| 89.8 | n/a | n/a | -7.776 | n/a | n/a | n/a | n/a | CCCCC(CC)C(c1ccc(O)cc1)c1ccc(O)cc1 (centres undefined) | 4,4'-(2-Ethylhexane-1,1-diyl)diphenol |
| n/a | n/a | n/a | n/a | n/a | n/a | 0.00678 | 0 | CS(O)(=O)=O.CC(C)(C)c1cc(/C=C2SC(=N)NC2=O)cc(c1O)C(C)(C)C | n/a |
| n/a | n/a | 0.38 | -1.766 | n/a | n/a | n/a | n/a | Nc1cc([N+](=O)[O-])cc(S(=O)(=O)O)c1O | 6-Amino-4-nitro-1-phenol-2-sulfonic acid |
| n/a | n/a | n/a | n/a | n/a | n/a | 0.1 | 11.95 | CCCCC1=NC2(CCCC2)C(=O)N1Cc1ccc(-c2ccccc2-c2nnn[nH]2)cc1 | Irbesartan |
| n/a | n/a | 1.26 | -2.657 | n/a | n/a | n/a | n/a | COC(=O)c1ccc(C(=O)O)cc1[N+](=O)[O-] | 4-(Methoxycarbonyl)-3-nitrobenzoic acid |
| -100.2 | 121.2 | n/a | n/a | 1.18 | n/a | n/a | n/a | CO[Si](C)(C)CCl | Dimethyl(chloromethyl)methoxysilane |
| n/a | n/a | n/a | -3.575 | -9.608 | n/a | n/a | n/a | O=c1[nH]c2ccccc2c(=O)n1CCCl | 3-(2-Chloroethyl)quinazoline-2,4(1H,3H)-dione |
| n/a | n/a | 0.74 | n/a | -6.644 | n/a | n/a | n/a | O=C(O)C(Cc1ccccc1)NC(O)=Nc1ccccc1Cl (centres undefined) | N-{[(2-Chlorophenyl)imino](hydroxy)methyl}phenylalanine |
| 91 | n/a | n/a | -1.782 | n/a | n/a | n/a | n/a | O=C(O)CN=C(O)c1cccc([N+](=O)[O-])c1 | N-[Hydroxy(3-nitrophenyl)methylidene]glycine |
| n/a | n/a | -1.5 | -2.21 | n/a | n/a | n/a | n/a | Nc1ccc2c(O)c(/N=N/c3ccc4c(O)c(/N=N/c5ccccc5)c(S(=O)(=O)[O-])cc4c3)c(S(=O)(=O)[O-])cc2c1.[Na+].[Na+] | C.I. Direct Red 16 |
| n/a | n/a | 0.9 | n/a | -6.569 | n/a | n/a | n/a | O=C(Nc1ccnc(=O)[nH]1)c1ccccc1 | N4-Benzoylcytosine |
| n/a | n/a | 4.1 | n/a | -3.954 | n/a | n/a | n/a | CCCCC(CC)COC(=O)OCC(CC)CCCC (centres undefined) | Bis(2-ethylhexyl) carbonate |
| n/a | 358.7 | n/a | -5.3 | -5.62 | n/a | n/a | n/a | CCCCC(CC)COC(=O)c1ccc([N+](=O)[O-])cc1 (centres undefined) | 2-Ethylhexyl 4-nitrobenzoate |
| n/a | n/a | 0.24 | n/a | -10.38 | n/a | n/a | n/a | Nc1ccc(N)c(CCO)c1.O=S(=O)(O)O | Hydroxyethyl-p-phenylenediamine sulphate |
| 71.5 | n/a | n/a | -3.397 | n/a | n/a | n/a | n/a | CCCCCCC(O)CCCCCCCCCCC(=O)OCC(O)CO (centres undefined) | Octadecanoic acid, 12-hydroxy-, 2,3-dihydroxypropyl ester |

The first 4 entries again:

SMILES	name	mp (°C)	boiling point (°C)	log Kow	log S (log10 mol/L)	log VP (log10 mmHg)	Henry's law constant (log10 atm·m3/mol)	plasma fu	hepatic Clint (µL/min/10^6 cells)
Nc1cc(S(=O)(=O)O)cc([N+](=O)[O-])c1O	4-Hydroxy-5-nitrometanilic acid	n/a	n/a	0.08	-1.746	n/a	n/a	n/a	n/a
COC(=O)[C@@H]1CCC[C@H](C)C1 (relative stereo)	n/a	n/a	200	3.7	-2.624	0.306	n/a	n/a	n/a
CCN(CCNS(C)(=O)=O)c1ccc(N)c(C)c1	n/a	66.5	n/a	0.822	-1.832	n/a	n/a	n/a	n/a
CC(CCN(CCC(C)CC(C)(C)C)C(=S)[S-])CC(C)(C)C.CC(CCN(CCC(C)CC(C)(C)C)C(=S)[S-])CC(C)(C)C.[Zn+2] (centres undefined)	Zinc bis[bis(3,5,5-trimethylhexyl)carbamodithioate]	84.69	n/a	n/a	-6.103	-5.195	n/a	n/a	n/a